Experimental data as given in ChEMBL document CHEMBL1128840, “Synthesis of myo-inositol-1-phosphatase inhibitors in which the phosphate group is replaced by less polar groups” (Bioorg Med Chem Lett, 1995).

Chains of the proteins cited; added tags and fusions are not shown.
UniProt P20456, whole entry, looked up: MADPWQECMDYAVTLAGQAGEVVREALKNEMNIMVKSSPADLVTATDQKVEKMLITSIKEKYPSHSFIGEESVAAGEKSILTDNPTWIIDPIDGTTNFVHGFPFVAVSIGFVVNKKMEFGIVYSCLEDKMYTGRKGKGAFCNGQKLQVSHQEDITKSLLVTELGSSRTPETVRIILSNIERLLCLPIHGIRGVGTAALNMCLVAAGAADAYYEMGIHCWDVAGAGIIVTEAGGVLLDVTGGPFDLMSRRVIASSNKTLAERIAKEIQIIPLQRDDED

Biological target: Inositol monophosphatase 1 (Bos taurus, UniProt P20456)
Experiment: Inhibitory activity against myo-inositol-1-phosphatase

CP(=O)(O)O[C@@H]1[C@H](O)C[C@@H](O)C[C@H]1OCCCCc1ccccc1O
IC50: 87 µM
